Data as given in ChEMBL document CHEMBL1146752, “Oxamyl dipeptide caspase inhibitors developed for the treatment of stroke” (Bioorg Med Chem Lett, 2004).

Chains of the proteins cited; added tags and fusions are not shown. Lines headed by an entry give the natural chain unless they say otherwise; changes in a name come on top.
UniProt Q14790: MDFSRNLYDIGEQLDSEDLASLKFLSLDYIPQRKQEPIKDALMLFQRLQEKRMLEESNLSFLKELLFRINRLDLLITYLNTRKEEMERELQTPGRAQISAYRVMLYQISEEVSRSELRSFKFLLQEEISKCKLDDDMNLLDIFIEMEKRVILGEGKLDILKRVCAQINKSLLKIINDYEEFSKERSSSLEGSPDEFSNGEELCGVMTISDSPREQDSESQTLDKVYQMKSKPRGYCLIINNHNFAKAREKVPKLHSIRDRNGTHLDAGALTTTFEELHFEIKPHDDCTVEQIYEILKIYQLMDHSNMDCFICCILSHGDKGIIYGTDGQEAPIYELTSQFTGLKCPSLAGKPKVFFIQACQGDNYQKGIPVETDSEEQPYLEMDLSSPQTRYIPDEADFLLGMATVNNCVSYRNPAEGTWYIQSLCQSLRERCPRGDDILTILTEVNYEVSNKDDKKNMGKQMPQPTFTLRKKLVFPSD

What was measured:
SKW 6.4 = assay: Inhibitory activity was evaluated against human SKW 6.4 cell line in cellular assay; type: functional, cell-based
Procedure, shortened: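 Cellular assay (Con A; SKW 6.4 cells) run for 24 h at 37 °C. Read-out is IC50 (µM).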

Caspase-8 = Caspase-8 (Homo sapiens, UniProt Q14790)
Caspase-3 (Homo sapiens) = biological target: T1, Caspase-3 (Homo sapiens) (UniProt P42574)
T1 sequence (whole entry): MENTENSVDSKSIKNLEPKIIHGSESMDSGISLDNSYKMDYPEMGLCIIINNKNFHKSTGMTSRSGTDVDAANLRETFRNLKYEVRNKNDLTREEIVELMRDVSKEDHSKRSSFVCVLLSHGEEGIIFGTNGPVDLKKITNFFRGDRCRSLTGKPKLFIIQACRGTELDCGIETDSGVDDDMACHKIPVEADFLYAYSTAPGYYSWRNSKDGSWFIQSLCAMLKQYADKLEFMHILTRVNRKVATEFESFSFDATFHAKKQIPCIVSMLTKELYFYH

Caspase-6 (Homo sapiens) = biological target: T2, Caspase-6 (Homo sapiens) (UniProt P55212)
T2 sequence (whole entry): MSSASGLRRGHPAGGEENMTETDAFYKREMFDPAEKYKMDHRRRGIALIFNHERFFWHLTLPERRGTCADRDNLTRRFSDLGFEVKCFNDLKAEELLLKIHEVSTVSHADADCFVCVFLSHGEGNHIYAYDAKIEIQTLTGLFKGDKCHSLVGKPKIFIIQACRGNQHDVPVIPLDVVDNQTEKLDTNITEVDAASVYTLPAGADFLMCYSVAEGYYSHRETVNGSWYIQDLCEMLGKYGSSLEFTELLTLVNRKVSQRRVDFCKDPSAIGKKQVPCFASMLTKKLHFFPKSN

Caspase-1 (Mus musculus) = biological target: T3, Caspase-1 (Mus musculus) (UniProt P29452)
T3 sequence (whole entry): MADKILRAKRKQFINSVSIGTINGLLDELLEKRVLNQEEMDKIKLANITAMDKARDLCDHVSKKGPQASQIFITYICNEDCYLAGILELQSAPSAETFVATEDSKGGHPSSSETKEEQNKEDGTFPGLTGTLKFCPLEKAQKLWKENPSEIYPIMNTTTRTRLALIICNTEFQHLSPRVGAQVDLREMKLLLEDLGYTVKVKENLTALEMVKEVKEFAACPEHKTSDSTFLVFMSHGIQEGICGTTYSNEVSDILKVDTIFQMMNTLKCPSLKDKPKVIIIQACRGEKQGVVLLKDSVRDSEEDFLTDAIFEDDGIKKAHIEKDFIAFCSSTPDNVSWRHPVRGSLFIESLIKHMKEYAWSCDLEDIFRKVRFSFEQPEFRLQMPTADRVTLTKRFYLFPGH

THP-1 = assay: Inhibitory activity evaluated against human THP-1 cell line in cellular assay; type: functional, cell-based
Procedure, shortened: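 Human cells (monocytes; THP-1 line) in a caspase-1-dependent cellular assay run for 24 h at 37 °C. Read-out is IC50 (µM).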

SMILES	IC50 (SKW 6.4)	k3/Ki (Caspase-8)	k3/Ki (Caspase-3 (Homo sapiens))	k3/Ki (Caspase-6 (Homo sapiens))	k3/Ki (Caspase-1 (Mus musculus))	IC50 (THP-1)
CC(C)[C@H](NC(=O)C(=O)Nc1ccccc1Br)C(=O)N[C@@H](CC(=O)O)C(=O)COc1c(F)c(F)cc(F)c1F	1270 nM	2.35e+06 M⁻¹ s⁻¹	1.27e+06 M⁻¹ s⁻¹	504000 M⁻¹ s⁻¹	7.16e+06 M⁻¹ s⁻¹	–
CC(C)[C@H](NC(=O)C(=O)Nc1cccc2cc3ccccc3cc12)C(=O)N[C@@H](CC(=O)O)C(=O)COc1c(F)c(F)cc(F)c1F	–	1.92e+06 M⁻¹ s⁻¹	260000 M⁻¹ s⁻¹	2.64e+06 M⁻¹ s⁻¹	1.76e+07 M⁻¹ s⁻¹	–
CC(C)[C@H](NC(=O)C(=O)Nc1ccccc1F)C(=O)N[C@@H](CC(=O)O)C(=O)COc1c(F)c(F)cc(F)c1F	–	248000 M⁻¹ s⁻¹	221000 M⁻¹ s⁻¹	192000 M⁻¹ s⁻¹	195000 M⁻¹ s⁻¹	–
CC(C)[C@H](NC(=O)C(=O)Nc1c(F)cc(F)c(F)c1F)C(=O)N[C@@H](CC(=O)O)C(=O)COc1c(F)c(F)cc(F)c1F	–	126000 M⁻¹ s⁻¹	208000 M⁻¹ s⁻¹	24000 M⁻¹ s⁻¹	416000 M⁻¹ s⁻¹	–
CC(C)(C)C(NC(=O)C(=O)Nc1cccc2ccccc12)C(=O)N[C@@H](CC(=O)O)C(=O)COc1c(F)c(F)cc(F)c1F (stereo not given in full)	–	456000 M⁻¹ s⁻¹	98600 M⁻¹ s⁻¹	160000 M⁻¹ s⁻¹	2.32e+06 M⁻¹ s⁻¹	–
CNC(=O)C(=O)N[C@H](C(=O)N[C@@H](CC(=O)O)C(=O)COc1c(F)c(F)cc(F)c1F)C(C)C	–	21200 M⁻¹ s⁻¹	149000 M⁻¹ s⁻¹	126000 M⁻¹ s⁻¹	16800 M⁻¹ s⁻¹	–
CC(C)[C@H](NC(=O)C(=O)Nc1ccccc1Oc1ccccc1)C(=O)N[C@@H](CC(=O)O)C(=O)COc1c(F)c(F)cc(F)c1F	–	933000 M⁻¹ s⁻¹	78600 M⁻¹ s⁻¹	202000 M⁻¹ s⁻¹	1.5e+06 M⁻¹ s⁻¹	–
CC(C)[C@H](NC(=O)C(=O)Nc1ccccc1I)C(=O)N[C@@H](CC(=O)O)C(=O)COc1c(F)c(F)cc(F)c1F	–	2.33e+06 M⁻¹ s⁻¹	564000 M⁻¹ s⁻¹	373000 M⁻¹ s⁻¹	1.98e+06 M⁻¹ s⁻¹	–
CCCCC(NC(=O)C(=O)Nc1cccc2ccccc12)C(=O)N[C@@H](CC(=O)O)C(=O)COc1c(F)c(F)cc(F)c1F (stereo not given in full)	–	1.83e+06 M⁻¹ s⁻¹	149000 M⁻¹ s⁻¹	175000 M⁻¹ s⁻¹	2.57e+06 M⁻¹ s⁻¹	1490 nM
CC(C)[C@H](NC(=O)C(=O)Nc1ccc2ccccc2c1)C(=O)N[C@@H](CC(=O)O)C(=O)COc1c(F)c(F)cc(F)c1F	–	589000 M⁻¹ s⁻¹	395000 M⁻¹ s⁻¹	484000 M⁻¹ s⁻¹	625000 M⁻¹ s⁻¹	–
CC(C)[C@H](NC(=O)C(=O)NC(c1ccccc1)c1ccccc1)C(=O)N[C@@H](CC(=O)O)C(=O)COc1c(F)c(F)cc(F)c1F	–	119000 M⁻¹ s⁻¹	67700 M⁻¹ s⁻¹	54900 M⁻¹ s⁻¹	442000 M⁻¹ s⁻¹	–
CC(C)[C@H](NC(=O)C(=O)Nc1c(Cl)c(Cl)cc(Cl)c1Cl)C(=O)N[C@@H](CC(=O)O)C(=O)COc1c(F)c(F)cc(F)c1F	–	375000 M⁻¹ s⁻¹	279000 M⁻¹ s⁻¹	98700 M⁻¹ s⁻¹	3.91e+06 M⁻¹ s⁻¹	–
CC(C)[C@H](NC(=O)C(=O)NOCc1ccccc1)C(=O)N[C@@H](CC(=O)O)C(=O)COc1c(F)c(F)cc(F)c1F	–	46300 M⁻¹ s⁻¹	78300 M⁻¹ s⁻¹	66200 M⁻¹ s⁻¹	36300 M⁻¹ s⁻¹	–
CC(C)[C@H](NC(=O)C(=O)Nc1cc(F)c(F)c(F)c1F)C(=O)N[C@@H](CC(=O)O)C(=O)COc1c(F)c(F)cc(F)c1F	–	58900 M⁻¹ s⁻¹	113000 M⁻¹ s⁻¹	62600 M⁻¹ s⁻¹	266000 M⁻¹ s⁻¹	–
O=C(O)C[C@H](NC(=O)C1CCC(NC(=O)C(=O)Nc2cccc3ccccc23)C1)C(=O)COc1c(F)c(F)cc(F)c1F (stereo not given in full)	–	51300 M⁻¹ s⁻¹	70600 M⁻¹ s⁻¹	8230 M⁻¹ s⁻¹	767000 M⁻¹ s⁻¹	–
CC(C)[C@H](NC(=O)C(=O)NC1CCCc2ccccc21)C(=O)N[C@@H](CC(=O)O)C(=O)COc1c(F)c(F)cc(F)c1F (stereo not given in full)	–	18700 M⁻¹ s⁻¹	20500 M⁻¹ s⁻¹	21100 M⁻¹ s⁻¹	46000 M⁻¹ s⁻¹	–
CC(C)[C@H](NC(=O)C(=O)Nc1cccc2ccccc12)C(=O)N[C@@H](CC(=O)O)C(=O)COP(C)(=O)c1ccccc1 (stereo not given in full)	–	847000 M⁻¹ s⁻¹	529000 M⁻¹ s⁻¹	165000 M⁻¹ s⁻¹	1.4e+06 M⁻¹ s⁻¹	–
CC(C)[C@H](NC(=O)C(=O)Nc1cnccn1)C(=O)N[C@@H](CC(=O)O)C(=O)COc1c(F)c(F)cc(F)c1F	–	50400 M⁻¹ s⁻¹	149000 M⁻¹ s⁻¹	124000 M⁻¹ s⁻¹	27600 M⁻¹ s⁻¹	–
CCCCCCCc1ccc(NC(=O)C(=O)N[C@H](C(=O)N[C@@H](CC(=O)O)C(=O)COc2c(F)c(F)cc(F)c2F)C(C)C)cc1	–	18700 M⁻¹ s⁻¹	22700 M⁻¹ s⁻¹	18600 M⁻¹ s⁻¹	11700 M⁻¹ s⁻¹	–
CC(C)[C@H](NC(=O)C(=O)Nc1cccc2ccccc12)C(=O)N[C@@H](CC(=O)O)C(=O)COc1ccc2ccccc2c1	–	20 M⁻¹ s⁻¹	9460 M⁻¹ s⁻¹	31 M⁻¹ s⁻¹	156000 M⁻¹ s⁻¹	–
CC(C)[C@H](NC(=O)C(=O)Nc1ccncc1)C(=O)N[C@@H](CC(=O)O)C(=O)COc1c(F)c(F)cc(F)c1F	–	23100 M⁻¹ s⁻¹	54300 M⁻¹ s⁻¹	42800 M⁻¹ s⁻¹	13800 M⁻¹ s⁻¹	–
CC(C)[C@H](NC(=O)C(=O)NCCc1ccccc1)C(=O)N[C@@H](CC(=O)O)C(=O)COc1c(F)c(F)cc(F)c1F	–	207000 M⁻¹ s⁻¹	243000 M⁻¹ s⁻¹	317000 M⁻¹ s⁻¹	345000 M⁻¹ s⁻¹	–
